Test results as given in ChEMBL document CHEMBL1149431, “Derivatives of tramadol for increased duration of effect” (Bioorg Med Chem Lett, 2006).

Protein sequences, listed by entry. Tags and fused reporters are not part of them.
UniProt P35372, whole entry: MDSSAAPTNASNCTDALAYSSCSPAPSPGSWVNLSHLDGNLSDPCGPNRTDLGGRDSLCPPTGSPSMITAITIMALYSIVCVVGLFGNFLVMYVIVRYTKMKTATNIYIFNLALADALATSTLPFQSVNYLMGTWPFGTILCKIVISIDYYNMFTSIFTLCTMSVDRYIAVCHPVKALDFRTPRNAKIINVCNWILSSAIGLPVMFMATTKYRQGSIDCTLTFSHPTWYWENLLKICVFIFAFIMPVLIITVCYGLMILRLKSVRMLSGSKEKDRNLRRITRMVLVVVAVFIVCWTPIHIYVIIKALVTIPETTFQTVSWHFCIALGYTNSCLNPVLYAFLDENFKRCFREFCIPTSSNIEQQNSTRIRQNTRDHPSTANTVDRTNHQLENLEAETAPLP

Molecular target: Mu-type opioid receptor (Homo sapiens, UniProt P35372)
Assay: Inhibition of mu opioid receptor

How did the pIC50 turn out when CN(C)C[C@H]1CCCC[C@]1(O)c1cccc(O)c1 [O-DESMETHYL TRAMADOL] was run?
Its pIC50 is 7.33.

pIC50: −log10 of the molar value.
